Laboratory results as given in publication PMC10677270, “2554. What’s Weight Got to Do with It? Prospective Pharmacokinetic/Pharmacodynamic Evaluation of Fixed-Dose Daptomycin” (Open Forum Infectious Diseases, 2023).

Assay: Steady-state pharmacokinetic/pharmacodynamic evaluation of fixed-dose (750 mg) daptomycin in patients with Staphylococcus aureus infections

CCCCCCCCCC(=O)N[C@@H](Cc1c[nH]c2ccccc12)C(=O)N[C@H](CC(N)=O)C(=O)N[C@@H](CC(=O)O)C(=O)N[C@@H]1C(=O)NCC(=O)N[C@@H](CCCN)C(=O)N[C@@H](CC(=O)O)C(=O)N[C@H](C)C(=O)N[C@@H](CC(=O)O)C(=O)NCC(=O)N[C@H](CO)C(=O)N[C@@H]([C@H](C)CC(=O)O)C(=O)N[C@@H](CC(=O)c2ccccc2N)C(=O)O[C@@H]1C [DAP, daptomycin]
Elevated Cmin (> 24.3 mg/L) occurred, share of patients (all patients, 7/22, DAP 750 mg every 24 h, safety target): 32%
Elevated Cmin (> 24.3 mg/L), share of patients (males n=10, DAP 750 mg every 24 h): 20%
